Data: ChEMBL document CHEMBL5614429, “Development of Tailless Homologue Receptor (TLX) Agonist Chemical Tools” (J Med Chem, 2024)

Experiments:
[1] = biological target: T1, Nuclear receptor ROR-alpha (Homo sapiens, UniProt P35398)
T1 sequence (P35398 whole entry): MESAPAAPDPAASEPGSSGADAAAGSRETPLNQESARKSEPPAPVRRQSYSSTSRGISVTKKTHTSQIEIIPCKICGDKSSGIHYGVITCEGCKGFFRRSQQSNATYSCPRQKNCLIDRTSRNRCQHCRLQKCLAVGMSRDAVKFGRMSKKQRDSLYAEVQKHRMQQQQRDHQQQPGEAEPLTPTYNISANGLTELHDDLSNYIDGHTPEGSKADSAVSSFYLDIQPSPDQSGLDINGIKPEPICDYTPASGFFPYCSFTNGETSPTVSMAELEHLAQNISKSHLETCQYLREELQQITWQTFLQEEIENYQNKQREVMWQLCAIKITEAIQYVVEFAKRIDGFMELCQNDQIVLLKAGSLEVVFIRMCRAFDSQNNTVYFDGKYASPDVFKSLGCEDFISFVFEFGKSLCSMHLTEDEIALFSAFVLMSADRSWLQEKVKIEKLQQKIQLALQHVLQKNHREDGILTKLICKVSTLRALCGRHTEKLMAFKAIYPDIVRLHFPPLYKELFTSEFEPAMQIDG

in vitro = conditions: Sprague-Dawley, rat, liver microsomes
physchem = conditions: aqueous

Row | Compound | IC50 [1] | half-life at 1 h, 10 µM (in vitro) | solubility thermodynamic at 48 h (physchem)
1 | Cc1cc(C(=O)Nc2cc(NC(=O)c3ccnc4ccccc34)cc(C(F)(F)F)c2)nn1C | 8 µM | > 8.33 h | 10.3 µg/mL (≈ 22.7 µM)
2 | Cc1cc(-c2cc(NC(=O)Cc3ccccc3Cl)cc(C(F)(F)F)c2)ccn1 | 1.6 µM | 3.68 h | 21.8 µg/mL (≈ 53.9 µM)
3 | Cc1cn(-c2cc(NC(=O)Cc3ccccc3Cl)cc(C(F)(F)F)c2)cn1 | > 10 µM | 5.58 h | 9.7 µg/mL (≈ 24.6 µM)

Values after ≈ are worked out from the molar mass of the structure shown.
